Measurements published in US20210230178A1, “TRIOXACARCIN ANALOGS AND DIMERS AS POTENT ANTICANCER AGENTS” (William Marsh Rice University, priority 2017, published 2021).
Only a part of the results on these compounds is given; other tests are left out.

Experiments:
[1] = test system: MES SA DX (human uterine sarcoma cell line with marked multidrug resistance); assay: In vitro cytotoxicity assay (72 hour killing assay, CellTiter-Glo), MES SA DX; conditions: read-out: IC50 MES SA DX, 50% inhibitory concentration against cell growth, multidrug resistant line
[2] = test system: HEK 293T (human embryonic kidney cancer cell line); assay: In vitro cytotoxicity assay (72 hour killing assay, CellTiter-Glo), HEK 293T; conditions: read-out: IC50 HEK 293T, 50% inhibitory concentration against cell growth
[3] = test system: MES SA (human uterine sarcoma); assay: In vitro cytotoxicity assay (72 hour killing assay, CellTiter-Glo), MES SA; conditions: read-out: IC50 MES SA, 50% inhibitory concentration against cell growth

Which results are given for Trioxacarcin C?
IC50 [1]: > 500 nM; IC50 [2]: 5.25 nM; IC50 [3]: 6.09 nM

Which results are given for DC-45-A1?
IC50 [1]: > 1000 nM; IC50 [2]: 14.9 nM; IC50 [3]: 18.1 nM
